Biological target: Acetylcholinesterase (Homo sapiens, UniProt P22303)
Assay: Reactivation of methylphosphonothioate VX-inhibited recombinant human AChE measured up to 10 mins by Ellman's method

SMILES	Kd [µM]
NC(=O)c1cc[n+](CCC[n+]2ccccc2/C=N/O)cc1	50
CN(CCNc1c2c(nc3ccccc13)CCCC2)Cc1ccnc(/C(N)=N/O)c1O	15
CN(CCCNc1c2c(nc3ccccc13)CCCC2)Cc1ccnc(/C(N)=N/O)c1O	30

Reference: ChEMBL document CHEMBL3232723, “Design, synthesis and biological evaluation of novel tetrahydroacridine pyridine- aldoxime and -amidoxime hybrids as efficient uncharged reactivators of nerve agent-inhibited human acetylcholinesterase” (2014)
